Counter-ions that a name gives are not always drawn.

The first experiment concerns the target T1, Rm3(GURC)-Rlu (Rattus norvegicus, UniProt P08483, A184R).
T1 sequence (P08483 with tags, fused parts or gaps A184R): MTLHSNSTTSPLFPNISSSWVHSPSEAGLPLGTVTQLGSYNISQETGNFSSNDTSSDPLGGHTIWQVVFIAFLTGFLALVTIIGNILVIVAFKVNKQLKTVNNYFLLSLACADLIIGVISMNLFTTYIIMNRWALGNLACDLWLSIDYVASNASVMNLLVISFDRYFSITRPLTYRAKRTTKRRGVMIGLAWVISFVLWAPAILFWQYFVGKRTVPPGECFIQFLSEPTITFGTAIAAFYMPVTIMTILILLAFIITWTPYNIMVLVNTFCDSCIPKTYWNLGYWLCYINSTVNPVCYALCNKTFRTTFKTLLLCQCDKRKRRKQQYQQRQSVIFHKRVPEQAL
Test: not given
It is filed as cell-based.
Conditions: not given
`Cc1ccc(OCC(O)C(C)NC(C)C)c2c1CCC2` (stereo not drawn) [ICI-118,551]: the “effect on the luciferase activity of Rm3(GURC)-Rlu” value (“effect on the luciferase activity” for short) is “no significant effect”.
Take `C[N+](C)(C)CC#CCN1CCCC1=O` [Oxotremorine M]: the “EC50 in luciferase upregulation assay relative to competition binding assay (right-shift)” value was 1000 fold.
Same read-out and setting: the same measure for `C[C@@H]1OC(=O)[C@H]2C[C@H]3CCCC[C@@H]3[C@@H](/C=C/[C@H]3CCC[C@H](C)N3C)[C@@H]12` [himbacine]: “small right-shift”.
`N=C(N)SCCc1cnc[nH]1` [imetit]: the “effect on the luciferase activity” value was “did not change”.
Turning to `NCCc1c[nH]c2ccc(O)cc12` [serotonin], the “effect on the luciferase activity” value is recorded as “did not change”.

The target in the next experiment is T1, Rm3(GURC)-Rlu. Kind of experiment: cell-based. Particulars: 20 h, read-out: response (activity) in LOPAC screen.
For `CN1[C@@H]2CC[C@H]1C[C@@H](OC(c1ccccc1)c1ccccc1N)C2` (stereo partly drawn) [aminobenztropine], the activity at 2 µM was greater than 140%.
On the same count and under the same terms, the same measure for `C[C@@H]1OC(=O)[C@H]2C[C@H]3CCCC[C@@H]3[C@@H](/C=C/[C@H]3CCC[C@H](C)N3C)[C@@H]12` [himbacine]: greater than 140%.
For `COC(=O)C1=C(C)NC(C)=C(C(=O)OCCN(C)Cc2ccccc2)C1c1cccc([N+](=O)[O-])c1` (stereo not drawn) [nicardipine], the activity at 2 µM is greater than 150%.
Turning to `CN1CCN(CC(=O)N2c3ccccc3C(=O)Nc3cccnc32)CC1` [pirenzepine], the activity at 2 µM was greater than 140%.
In the case of `C=C[C@H]1C[N@@]2CC[C@H]1C[C@@H]2[C@@H](O)c1ccnc2ccc(OC)cc12` [quinidine sulfate], the activity at 2 µM is greater than 150%.
On the same count and under the same terms, the same measure for `S=C(NC1CCCCC1)N1CCC(c2cnc[nH]2)CC1` [thioperamide]: greater than 150%.

The target in the next experiment is T1, Rm3(GURC)-Rlu.
Test: not given
The conditions noted are these: [3H]NMS displacement, COS-7 cell homogenates.
Turning to `C[N+]1(C)CCC(OC(=O)C(c2ccccc2)c2ccccc2)CC1.[I-]` [4-DAMP], the “decrease in binding affinity to the Rm3(GURC)-Rlu than the wild-type” value was determined as 1 fold.

(Values after patent publication US20080009551A1, “Methods and Compositions for Identifying Modulators of G Protein-Coupled Receptors” (Arena Pharmaceuticals, Inc., priority 2003, published 2008).)
